Reference: BindingDB's records for US10183938

Protein sequences, listed by entry. Tags and fused reporters are not part of them. Residues count along the entry.
UniProt P36544, 23-502 limits assumed: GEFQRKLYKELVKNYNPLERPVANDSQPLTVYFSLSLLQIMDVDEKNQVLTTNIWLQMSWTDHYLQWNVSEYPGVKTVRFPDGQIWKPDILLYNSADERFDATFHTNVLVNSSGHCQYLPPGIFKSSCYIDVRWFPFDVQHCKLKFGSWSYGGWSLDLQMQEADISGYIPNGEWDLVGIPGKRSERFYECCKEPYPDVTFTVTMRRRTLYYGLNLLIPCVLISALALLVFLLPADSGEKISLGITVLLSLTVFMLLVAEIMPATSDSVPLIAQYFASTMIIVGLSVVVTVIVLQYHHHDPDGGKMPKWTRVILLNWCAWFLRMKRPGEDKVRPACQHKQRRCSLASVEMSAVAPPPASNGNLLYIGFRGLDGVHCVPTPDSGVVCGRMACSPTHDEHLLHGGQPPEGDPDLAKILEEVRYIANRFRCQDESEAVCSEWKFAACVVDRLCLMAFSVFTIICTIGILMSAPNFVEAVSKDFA

These compounds were tested against Neuronal acetylcholine receptor subunit alpha-7 (Homo sapiens, UniProt P36544) (assay: Human alpha7 nAChR Binding Assay).

SMILES | Ki [nM]
CC1(C)[C@H](NC(=O)c2ccc3oc(Cl)cc3c2)C2CCN1CC2 | 590
COCc1ccc2cc(C(=O)N[C@@H]3C4CCN(CC4)C3(C)C)sc2c1 | 4400
O=C(N[C@@H]1C2CCN(CC2)C12CC2)c1ccc2oc(C3CC3)cc2c1 | 620
CC1(C)[C@@H](NC(=O)c2cc3cccc(F)c3s2)C2CCN1CC2 | 6700
CC1(C)[C@H](NC(=O)c2cc3ccc(F)c(F)c3s2)C2CCN1CC2 | 1000
COc1ccc2sc(C(=O)N[C@@H]3C4CCN(CC4)C3(C)C)cc2c1 | 6700
Cc1csc2cc(C(=O)N[C@@H]3C4CCN(CC4)C34CC4)ccc12 | 6300
O=C(N[C@@H]1C2CCN(CC2)C12CC2)c1cc2cccc(C3CC3)c2s1 | 36
O=C(N[C@@H]1C2CCN(CC2)C12CC2)c1n[nH]c2ccccc12 | 350
COc1ccc2cc(C(=O)N[C@@H]3C4CCN(CC4)C34CC4)sc2c1C(F)(F)F | 7600
O=C(N[C@@H]1C2CCN(CC2)C12CC2)c1cc2ccc3c(c2s1)CCCO3 | 100
CC(C)(C)c1cccc2cc(C(=O)N[C@@H]3C4CCN(CC4)C3(C)C)sc12 | 630
CC1(C)[C@H](NC(=O)c2cc3cccc(CC(F)(F)F)c3s2)C2CCN1CC2 | 505
Cc1ccc2cc(C(=O)N[C@@H]3C4CCN(CC4)C34CC4)sc2c1C(F)(F)F | 670
CC1(C)[C@H](NC(=O)c2cc3cccc(C4(C(F)(F)F)CC4)c3s2)C2CCN1CC2 | 2900
O=C(N[C@@H]1C2CCN(CC2)C12CC2)c1cc2cccc(Cl)c2o1 | 730
O=C(N[C@@H]1C2CCN(CC2)C12CC2)c1cc2ccc(OC(F)(F)F)cc2s1 | 8200
Cc1nc2cc(C(=O)N[C@@H]3C4CCN(CC4)C34CC4)ccc2s1 | 770
CC1(C)[C@H](NC(=O)c2ccc3ccsc3c2)C2CCN1CC2 | 620
O=C(N[C@@H]1C2CCN(CC2)C12CC2)c1cc2cccc(OC(F)(F)F)c2s1 | 520
O=C(N[C@@H]1C2CCN(CC2)C12CC2)c1ccc2cc(Cl)sc2c1 | 290
Cc1csc2ccc(C(=O)N[C@@H]3C4CCN(CC4)C34CC4)cc12 | 760
